Drawing on PMC5418926, this text covers Kd, koff and kon for one substance.

pKd: −log10 of the molar value.

Assay in all cases: SPR; Biacore 3000; His-tagged eL42 species immobilised by amine coupling on a CM5 chip; eRF1 or EF-3 as analyte; 25°C, HBS-EP (10 mM HEPES pH 7.4, 150 mM NaCl, 3 mM EDTA, 0.005% P20), 5 µL/min; 1:1 Langmuir fit; mean of 3 experiments
(In general: In SPR one partner is held on a chip, and binding of the other changes the refractive index at the surface.)

The target of assay [1] is human recombinant eL42-K53Q mutant (human) (UniProt P83881).
Assay [2] concerns the target human recombinant eL42-Q51A/K53A double mutant (human) (UniProt P83881).
Assay [3] has as its target human recombinant eL42-Q51E mutant (human) (UniProt P83881).
For assay [4], the target named is human recombinant eL42-Δ(GGQTK) variant, His-tagged (human) (UniProt P83881).
For assay [5], the target named is recombinant human wild-type eL42 protein (large subunit ribosomal protein eL42, formerly RPL36A), His-tagged (human) (UniProt P83881).

In general, pKd refers to the negative decadic logarithm of the Kd, by convention in mol/L. As usually defined, the koff is the first-order rate constant of dissociation. What is called kon is the rate constant with which the complex forms. In the case of “human translation termination factor eRF1 (from UniProt P62495 1-437) (natural protein)”, the pKd in assay [1] was 5.89; in assay [2], 5.79; in assay [3], 5.72; in assay [4], 5.51; in assay [5] it was 7.43. Also, the koff was 0.000188 s⁻¹ in assay [1]; 0.000379 s⁻¹ in assay [2]; 0.000251 s⁻¹ in assay [3]; 0.000487 s⁻¹ in assay [4]; 0.000199 s⁻¹ in assay [5]. The kon in assay [1] amounted to 147 M⁻¹ s⁻¹; in assay [2], 234 M⁻¹ s⁻¹; in assay [3] it was 131 M⁻¹ s⁻¹; in assay [4], 156 M⁻¹ s⁻¹; in assay [5] it was 5300 M⁻¹ s⁻¹.
